Values quoted from earlier work as cited in US7012061B1 (New York University, priority 1998, dated 2006).

Legend:
[1] = tested on: cerebral endothelial cells; conditions: cited from earlier work
NOS = conditions: rat, in vivo; cited from earlier work

Structure (SMILES)	Cytokine-induced disruption of the BBB in vitro [1]	Increased permeability of the BBB (NOS)	Meningeal NO production (NOS)
COc1ccc2c(c1)c(CC(=O)O)c(C)n2C(=O)c1ccc(Cl)cc1 [Indomethacin]	abolished	–	–
N=C(N)NN [amino guanidine]	–	attenuated	blocked
